# From patent US9012422B2, “Method of treating acute myelogenous leukemia” (Wake Forest University Health Sciences, priority 2011, dated 2015)
# Chains of the proteins cited; added tags and fusions are not shown. Residues count along the entry.
# UniProt P04818, 2-313 limits assumed: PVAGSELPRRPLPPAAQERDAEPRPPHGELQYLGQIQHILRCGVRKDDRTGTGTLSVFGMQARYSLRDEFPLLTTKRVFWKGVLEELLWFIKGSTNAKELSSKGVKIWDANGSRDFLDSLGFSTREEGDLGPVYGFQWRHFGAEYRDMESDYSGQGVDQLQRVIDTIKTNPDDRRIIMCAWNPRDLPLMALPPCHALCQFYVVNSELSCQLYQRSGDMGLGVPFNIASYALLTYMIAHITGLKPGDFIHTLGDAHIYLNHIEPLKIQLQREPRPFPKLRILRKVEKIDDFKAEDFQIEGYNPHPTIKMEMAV
# How the values were obtained:
# [1] = tested on: human leukemia cell lines
# Source text: We chose to use doxorubicin as the anthracycline as it is the best tolerated anthracycline in C57/Bl6 mice^11 and would allow for comparisons between in vivo and in vitro studies.
# [2] = tested on: murine AML cells expressing p210 BCR-ABL; assay: Cytotoxicity assay of murine AML cells expressing p210 BCR-ABL; assay type: cell-based; details: 72 hours
# Source text: (§1) FIG. 1. […] (B) Flow cytometry of Annexin V assay.
# (§2) In addition to p53 loss, several other adverse prognostic factors are expressed in the cell lines tested. K562 cells express the fusion gene BCR-ABL that has been implicated in chemotherapy resistance^17 and prognosis in AML^18. THP-1 cells express high levels of MN1^18, shown to confer an adverse prognosis^20-21.
# [3] = tested on: murine AML cells expressing human MN1; assay: Cytotoxicity assay of murine AML cells expressing MN1; assay type: cell-based; details: 72 hours
# Source text: as §1, §2
# thymidylate synthase = biological target: T1, thymidylate synthase (Homo sapiens, UniProt P04818); assay: TS catalytic activity in treated HL60 cells; assay type: cell-based; details: 10 nM FdUMP[10]
# T1 construct: endogenous in cells; host or cells: HL60
# Experimental: FIG. 3. […] (A) TS inhibition assay. […] Activity is plotted as percentage of control.
# Cells were exposed to the indicated drug for 8, 16, 24, or 48 hours. Cells were then harvested in 25 mM Tris-HCl, pH 7.4 with Complete Protease Inhibitor Cocktail (Roche), put through 2 freeze/thaw cycles, and vortexed. The lysates were centrifuged at 10,000×g for 10 minutes at 4° C. TS assays were performed in a final volume of 200 μl containing 75 μM 5,10 methylene tetrahydrofolate in 0.5 M NaOH (Schircks Laboratories, Switzerland), 10 μM dUMP, 200,000 dpm of ^3H-dUMP (Moravek Biochemicals), 100 μM 2-mercaptoethanol, and 25 mM KH2PO4, pH 7.4. Cell lysate (400 μg of protein) was added to the reaction buffer. Reactions were incubated at 37° C. for 30 minutes and stopped by addition of 100 μl of 20% TCA, incubated for 5 minutes on ice. 200 μL of activated charcoal solution (10 g activated charcoal, 0.25 g BSA, 0.25 g dextran sulfate, in 100 ml of water) was added, vortexed and maintained at room temperature for 10 minutes. Reactions were centrifuged at 10,000×g for 30 minutes. 200 μL aliquots of the supernatant were read by scintillation counting. All reactions were repeated a minimum of three times.
# [4] = tested on: MR2 cell line (MLL-ENL and NRasG12D) leukemia in C57/Bl6 mice
# Source text: FIG. 12. […] C57/Bl6 mice were sublethally irradiated to 4.5 Gy and injected with an MLL-ENL and NRAS syngeneic leukemia. […] P value was obtained by log rank test. […] P value was obtained by log rank test.
# The Wake Forest University Institutional Animal Care and Use Committee approved all mouse experiments. Luciferase-tagged leukemia cells were transplanted into 6- to 8-wk-old sublethally irradiated recipient mice (4.5 Gy) by tail-vein injection of 1×10^6 viable cells. Mice were monitored by bioluminescent imaging on day 7. Imaging was performed using an IVIS100 imaging system (Caliper LifeSciences, Hopkinton, Mass.). Mice were injected with 150 mg/kg D-Luciferin (Gold Biotechnology, St. Louis, Mo.), anesthetized with isoflurane, and imaged for 2 min. Chemotherapy was initiated upon detection of clear signals. […] Control animals were injected with PBS. Repeat luciferase imaging was performed on day 6 of treatment.
# Recent studies have shown that the bone marrow microenvironment can have a profound effect on chemotherapy response in AML^24. Additionally, the immune system can affect the degree of response to a given therapy in vivo^25. […] This cell line express MLL-ENL and the mutated oncogene, NRas^G12D in conjunction with a luciferase reporter. […] This cell line expresses the FLT3 receptor with an internal tandem duplication (FLT3 ITD) in place of NRas^G12D. […]
# normal C57/Bl6 mice = details: mouse, in vivo
# Experimental: (§3) FIG. 7. […] Mice were treated in the same manner as the in FIG. 6; sacrificed 72 hours after the last dose; and organs were harvested, fixed, paraffin-embedded, sectioned, and stained. Slides were imaged using a Nikon Eclipse 50i light microscope, magnification as indicated. Photographs of tissues were taken using the NIS Elements D3.10 camera and software system. (B) Bone marrow transplant. […] Ly5.1+C57/Bl6 recipient mice were irradiated to 8 gray and injected with donor cells. After three weeks recipients were harvested and degree of femur engraftment by donor cells was determined by staining with Ly5.2 antibody and analyzed by flow cytometry.
# (§4) Normal C57/Bl6 mice were treated with identical dose, schedule and route of each drug as in the efficacy studies (i.e. Day 1, 3, 5 and 7). 72 hours after the last dose, animals were sacrificed, bilateral femoral cells harvested and organs fixed in 10% neutral buffered formalin followed by routine tissue processing and sectioning for hematoxylin and eosin staining. Slides were then reviewed by a veterinary pathologist using a Nikon Eclipse 50i light microscope. Photographs of tissues were taken using the NIS Elements D3.10 camera and software system. For transplant studies Ly5.1+C57/Bl6 recipient animals were irradiated to 8 gray and injected with 1×10^6 femur cells or, when 1×10^6 cells were not isolated, then 90% of all cells isolated by tail vein injection. Three weeks later recipient femoral bone marrow was harvested and stained with APC-conjugated anti-Ly5.2 antibody (BD Pharmingen, San Diego, Calif.) and analyzed by flow cytometry.
# (§5) Previous studies have shown that the gastrointestinal (GI) toxicity caused by 5-FU is at least in part mediated by RNA-directed effects^27. […] Three days after the last treatment, animals were sacrificed, bilateral femur marrow cells collected and organs harvested, sectioned, and stained.
# normal murine HSCs = details: mouse, in vivo
# Experimental: as §3, §4, §5
# [5] = tested on: normal HSCs from healthy allogeneic donors
# NCI 60 cell line screen = details: cited from earlier work
substance,measurement,setting,value
10-mer oligonucleotide of 5-fluorodeoxyuridine [FdUMP[10]],increased potency compared to 5-FU,[1],"~1,000 fold"
same,"fold change of IC50 vs parental leukemia cells, p210 BCR-ABL",[2],1.98 fold
same,"fold change of IC50 vs parental leukemia cells, MN1",[3],2.07 fold
same,TS inhibition,thymidylate synthase,profound and prolonged TS inhibition
same,tolerability,[4]; 300 mg/kg every other day for four doses,well tolerated
same,signs of toxicity,[4]; 300 mg/kg on days 1 and 4,no signs of toxicity
same,GI-tract histopathology (small and large intestine),normal C57/Bl6 mice,only mild crypt epithelial apoptosis with mitoses
same,bone marrow histopathology,normal C57/Bl6 mice,only minimal to mild apoptosis
same,engraftment of femur cells from treated donors in irradiated recipients,normal murine HSCs,engrafted to the same extent as the control animal
same,suppression of normal HSC colony formation,[5],only suppressed HSC colony formation at the highest dose tested
same,potency in the NCI 60 cell line screen relative to 5-FU,NCI 60 cell line screen,338 fold
